1 compound from patent US20240132513A1, “BENZAZEPINE DERIVATIVES, COMPOSITIONS, AND METHODS FOR TREATING COGNITIVE IMPAIRMENT” (AGENEBIO, INC., priority 2022, published 2024) can be followed below.

Protein sequences, listed by entry. Tags and fused reporters are not part of them. Residues count along the entry.
UniProt P18507, 40-475: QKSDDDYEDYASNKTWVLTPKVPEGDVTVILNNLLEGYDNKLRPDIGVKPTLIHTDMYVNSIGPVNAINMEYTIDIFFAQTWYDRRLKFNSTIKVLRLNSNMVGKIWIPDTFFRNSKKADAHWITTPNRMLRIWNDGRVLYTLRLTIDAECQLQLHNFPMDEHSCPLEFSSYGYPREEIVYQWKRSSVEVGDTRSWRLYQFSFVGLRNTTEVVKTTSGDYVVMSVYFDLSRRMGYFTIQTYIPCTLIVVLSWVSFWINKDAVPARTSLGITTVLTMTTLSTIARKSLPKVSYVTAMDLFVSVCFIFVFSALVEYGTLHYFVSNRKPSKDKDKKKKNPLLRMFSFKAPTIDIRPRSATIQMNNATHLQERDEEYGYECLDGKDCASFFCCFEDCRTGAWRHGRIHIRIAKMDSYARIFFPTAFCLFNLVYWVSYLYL
UniProt P31644, 32-462: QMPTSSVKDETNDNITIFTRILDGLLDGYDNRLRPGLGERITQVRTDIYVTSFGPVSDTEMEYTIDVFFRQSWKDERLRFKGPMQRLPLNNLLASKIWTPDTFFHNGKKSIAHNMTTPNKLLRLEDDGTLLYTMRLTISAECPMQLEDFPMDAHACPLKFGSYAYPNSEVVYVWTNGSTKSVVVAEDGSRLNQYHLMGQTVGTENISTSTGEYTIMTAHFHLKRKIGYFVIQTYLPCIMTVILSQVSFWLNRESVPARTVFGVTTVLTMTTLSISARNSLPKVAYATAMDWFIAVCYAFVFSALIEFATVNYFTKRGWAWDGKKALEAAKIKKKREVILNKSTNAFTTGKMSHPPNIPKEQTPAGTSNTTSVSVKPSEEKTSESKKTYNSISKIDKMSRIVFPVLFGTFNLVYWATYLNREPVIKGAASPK

Where only a bound is given, the exact number is not on record here.

The experiment concerns the target T1, GABAA R (α5β2γ2) (Homo sapiens, UniProt P18507+P31644).
T1 construct: expressed in transfected cells
The experiment can be described thus: Positive allosteric modulator activity: potentiation of EC20 GABA current in oocytes. The experiment is classed as cell-based. Conditions: read-out: GABA α5 Functional Data: potentiation. As for the experimental part: On day 1, 1 ng/32 nL of GABAA α5β2γ2 cDNA was injected into one oocyte. Test starts on day 2. The cDNA injected to the oocytes was a mix of alpha, beta and gamma, their ratio is 1:1:10 (by weight) and the total weight of the mixed 3 subunits to be injected in one oocyte was 1 ng in 32 nl volume. The injected oocytes can also be tested on day 3. In such case, the cDNA amount injected to the oocytes should be reduced by 20%.
Compounds of the present disclosure were tested using the following procedures.
8 oocytes were placed in 8 chambers of OpusXpress and superfused with Modified Barth's Saline (MBS) at 3 mL/min. Glass electrodes back-filled with 3M KCl (0.5-3 megaohms) were used. Membrane potential of oocytes was voltage-clamped at −60 mV. • 2).
Control Test (Diazepam or Methyl 3,5-Diphenylpyridazine-4-Carboxylate) • 1). New oocytes was used to run new test. • 2). […] Oocytes were washed with MBS for 5-10 min. • 4). […] Itest was divided by IGABA to obtain potentiation (%).
Test Compounds at Multiple Doses • 1). Repeat the above steps 1), 2) and 3) in the control test. • 2). […] Divide Itest by IGABA to obtain potentiation (%). • 3). Discard all tested oocytes, new oocytes were used and the above steps 1) and 2) were repeated to test second concentration of the same compound. Each oocyte was used for only one concentration test for a single test compound. […]

As to `COc1ccc2c(c1)-c1[nH]ncc1Cc1c(-c3noc(C(C)C)n3)ncn1-2` [Compound 54], the activation at 0.1 µM is more than 50%.
